Assay results as given in publication PMC11211886 (Frontiers in Pharmacology, 2024).

By UniProt entry, the sequences of proteins in these tests, tags left out.
UniProt P08183, whole entry: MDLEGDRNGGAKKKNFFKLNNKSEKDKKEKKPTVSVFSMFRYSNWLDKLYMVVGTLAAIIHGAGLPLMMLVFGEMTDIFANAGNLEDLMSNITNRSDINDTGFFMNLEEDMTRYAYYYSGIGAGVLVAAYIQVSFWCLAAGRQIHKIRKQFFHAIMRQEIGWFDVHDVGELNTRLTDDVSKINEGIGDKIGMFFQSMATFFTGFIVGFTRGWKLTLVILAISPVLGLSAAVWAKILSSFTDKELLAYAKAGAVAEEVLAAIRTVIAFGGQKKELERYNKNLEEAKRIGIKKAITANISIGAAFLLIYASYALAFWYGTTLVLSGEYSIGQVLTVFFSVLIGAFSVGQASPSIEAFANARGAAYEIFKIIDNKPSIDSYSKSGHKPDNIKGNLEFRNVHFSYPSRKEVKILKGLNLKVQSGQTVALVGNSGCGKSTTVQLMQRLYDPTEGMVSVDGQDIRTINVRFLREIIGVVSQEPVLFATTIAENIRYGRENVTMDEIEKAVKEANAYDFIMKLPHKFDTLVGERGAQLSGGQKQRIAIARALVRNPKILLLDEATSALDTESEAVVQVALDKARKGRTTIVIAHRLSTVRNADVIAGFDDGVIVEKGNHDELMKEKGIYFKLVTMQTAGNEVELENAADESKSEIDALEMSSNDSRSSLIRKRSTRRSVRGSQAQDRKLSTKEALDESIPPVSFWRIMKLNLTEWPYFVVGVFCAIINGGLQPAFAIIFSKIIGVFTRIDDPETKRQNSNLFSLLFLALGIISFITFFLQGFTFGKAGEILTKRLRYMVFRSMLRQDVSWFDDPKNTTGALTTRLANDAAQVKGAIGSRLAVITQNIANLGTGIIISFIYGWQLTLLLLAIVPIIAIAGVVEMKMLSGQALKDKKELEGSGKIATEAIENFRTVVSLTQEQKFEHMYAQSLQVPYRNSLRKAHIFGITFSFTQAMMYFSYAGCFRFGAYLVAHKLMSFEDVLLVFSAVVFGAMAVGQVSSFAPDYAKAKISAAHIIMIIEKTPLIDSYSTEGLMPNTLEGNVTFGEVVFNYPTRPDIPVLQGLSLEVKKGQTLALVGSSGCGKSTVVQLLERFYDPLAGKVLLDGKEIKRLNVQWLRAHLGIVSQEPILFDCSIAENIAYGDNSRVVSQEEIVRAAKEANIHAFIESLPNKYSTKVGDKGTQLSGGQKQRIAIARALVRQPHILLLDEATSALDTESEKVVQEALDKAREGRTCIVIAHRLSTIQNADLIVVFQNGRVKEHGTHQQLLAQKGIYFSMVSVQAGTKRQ

Tests used:
P-gp [1] = molecular target: T1, P-gp (Homo sapiens, UniProt P08183); experiment: in vitro; conditions: Caco-2
P-gp [2] = molecular target: T1, P-gp; conditions: 1 µM

Row | Molecule | efflux ratio at 60 min, 5 µM (P-gp [1]) | Percentage of inhibition (P-gp) (P-gp [2]) [%]
1 | C[C@H]1O[C@@H](O[C@H]2[C@@H](O)C[C@H](O[C@H]3[C@@H](O)C[C@H](O[C@H]4CC[C@@]5(C)[C@H](CC[C@@H]6[C@@H]5C[C@@H](O)[C@]5(C)[C@@H](C7=CC(=O)OC7)CC[C@]65O)C4)O[C@@H]3C)O[C@@H]2C)C[C@H](O)[C@@H]1O [Digoxin, reference compound] | 48.7 | –
2 | LY335979 | – | 94.8
